Results taken from patent publication US7323490B2 (dated 2008).

Target: T1, NQO2 (Rattus norvegicus, UniProt Q6AY80)
T1 sequence (Q6AY80 1-231): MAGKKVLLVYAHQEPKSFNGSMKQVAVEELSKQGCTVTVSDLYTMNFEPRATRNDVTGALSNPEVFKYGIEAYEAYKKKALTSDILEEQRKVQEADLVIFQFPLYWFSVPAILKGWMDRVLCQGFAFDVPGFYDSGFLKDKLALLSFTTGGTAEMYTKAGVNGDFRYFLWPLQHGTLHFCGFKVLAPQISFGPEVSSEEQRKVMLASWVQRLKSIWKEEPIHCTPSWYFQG
Format: binding
Details: 10 μM competitor

## CC(C)c1nc(N(C)S(C)(=O)=O)nc(-c2ccc(F)cc2)c1/C=C/[C@@H](O)C[C@@H](O)CC(=O)O [rosuvastatin]
  competitor binding to NQO2: did not display evidence of binding
